# Measured melting point values of organic chemicals

Values as listed in the OPERA 2.9 repository of K. Mansouri.

Melting points are in °C. "via" names the databases from which the curators took the value.

structure (SMILES),mp (°C),via
O=[N+]([O-])c1cc(C(F)(F)F)ccc1CCl,43.5,OCHEM
NS(=O)(=O)C#Cc1ccccc1,137,OCHEM
Cc1cc(C=O)c(C)n1-c1cccc(C(F)(F)F)c1,104,OCHEM
Cc1ccc2nc(-c3ccc(N=C=S)cc3)sc2c1,244,OCHEM
C1=CCC(C2OCC3(CO2)COC(C2CC=CCC2)OC3)CC1 (configuration not stated),91.1,eChemPortal
Nc1nc2ccccc2o1,125,OCHEM
O=[N+]([O-])c1ccc2[nH]c(=S)oc2c1,193,OCHEM
C=CCC[C@H]1CC[C@H]([C@H]2CC[C@H](c3ccc(C)cc3)CC2)CC1,103.7,eChemPortal
O=C(CCl)NCCc1c[nH]c2ccccc12,83,OCHEM
NS(=O)(=O)c1ccc(N2CCOCC2)c(C(=O)O)c1,278,OCHEM
CC(=O)Nc1ccc([N+](=O)[O-])cc1[N+](=O)[O-],124,eChemPortal
CNNCc1ccccc1,60,PubChem
Cc1c(C(=O)O)oc2c(Cl)cccc12,230,OCHEM
O=C(O)c1ccc(N2CCNC2=O)cc1,314,OCHEM
O=C1CCCN1c1cccc(O)c1,202,OCHEM
CCOc1ccccc1C(N)=NO,145.2,eChemPortal
O=Cc1cc(O)c(O)c(Cl)c1,235,OCHEM
CCCCCCCCCCCC[S+](CC)C(C)CC#N.F[B-](F)(F)F (configuration not stated),24,eChemPortal
Cn1c(=O)c2cc(N)cnc2n(C)c1=O,220,OCHEM
CN(C)S(=O)(=O)c1ccc(NCCO)c(C(=O)O)c1,177,OCHEM
CC(=O)Cc1ccc(-c2ccccc2)cc1,50,OCHEM
CCc1ccc(C(N)C(=O)O)cc1 (configuration not stated),220,OCHEM
O=C(O)COc1ccc(F)c(Cl)c1,107,OCHEM
CCOC(=O)c1[nH]c2c(c1C)C(=O)CC(C)(C)C2,161,OCHEM
CSCc1ccc(C(=O)O)cc1,146,OCHEM
CC(CCC(N)=O)n1nnc2ccccc21 (configuration not stated),102,OCHEM
COc1ccc(S(N)(=O)=O)cc1NC(C)=O,218,OCHEM
O=Cc1ccc(-c2ccc([N+](=O)[O-])cc2Cl)o1,137,OCHEM
O=C(CCl)Nc1cccc(Oc2ccccc2)c1,103,OCHEM
Cc1cc(C)c(C(=O)CCCC(=O)O)c(C)c1,76,OCHEM
CCCc1ccc(C(=O)CCl)cc1,31,OCHEM
CNC(=O)c1cc(C#N)cc(C)c1N,204.5,eChemPortal
O=S(=O)(c1ccc(Br)s1)N1CCNCC1,200,OCHEM
COC(=O)c1ccccc1N=NC(C)Cc1ccc(C(C)(C)C)cc1 (configuration not stated),41.47,eChemPortal
CCN(CC)CCOC(c1ccccc1)c1ccccc1.Cl,140,OCHEM
CCCCCCCCCCCC(=O)N(C)CC(=O)OC(C)C,-10.1,eChemPortal
COc1ccc(Nc2n[nH]c(=S)s2)cc1,185,OCHEM
Clc1cccc(Cl)c1-c1ccccc1,35,QSARDB
CCCCNC(=O)OCC,-22,OCHEM
CC(=O)Nc1cc(NC(C)=O)cc(C(=O)O)c1,188,OCHEM
O=C1CC(=O)CC2(CCCCC2)C1,170,OCHEM
CN1[C@@H]2CCC[C@H]1C[C@@H](NC(=O)c1nn(C)c3ccccc13)C2,219,PubChem
CCCCCCCC(=O)CCc1ccc(O)c(OC)c1,31.5,PubChem
Cc1cc(C)n2nc(N)nc2n1,370,OCHEM
Nc1nc2c(s1)CCc1ccccc1-2,62,OCHEM
Cc1ccc2[nH]c3c(c2c1)CCCC3=O,186,OCHEM
O=C(O)Cc1ccc(Oc2ccccc2)cc1,89.75,OCHEM
CC(C)C(N)=S,43,OCHEM
CCCCc1nc2ccccc2[nH]1,151.8,"OCHEM, PubChem"
CC(NC(=O)C(N)CC(=O)O)C(=O)NC1C(C)(C)SC1(C)C.CC(NC(=O)C(N)CC(=O)O)C(=O)NC1C(C)(C)SC1(C)C.O.O.O.O.O (configuration not stated),100,PubChem
CC(C)=CCC[C@@H](C)[C@H]1CC[C@H]2C3=C(CC[C@]12C)[C@@]1(C)CC[C@H](O)C[C@@H]1CC3,110,OCHEM

A selection of 3 entries from above:

structure (SMILES),mp (°C),via
Nc1nc2c(s1)CCc1ccccc1-2,62,OCHEM
CN1[C@@H]2CCC[C@H]1C[C@@H](NC(=O)c1nn(C)c3ccccc13)C2,219,PubChem
COc1ccc(S(N)(=O)=O)cc1NC(C)=O,218,OCHEM

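These are experimental values that the OPERA curators gathered from public databases to train and test their QSAR models. The files give a single number for a compound and property, which may rest on several reports. Conditions of the individual experiments are not part of the data. Where a salt, mixture or single isomer is drawn, the source does not say that exactly this form was tested. Unmarked limits or estimates from the upstream databases cannot be ruled out.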